This assay concerns Rattus norvegicus. As to the kind of experiment: Antinociceptive activity in Sprague-Dawley rat assessed as mean AUC of thermal-stimulus induced tail flick latency for 60 mins at 5 mg/kg, sc. Conditions: route subcutaneous, strain Sprague-Dawley.

This note sets out measurements from ChEMBL document CHEMBL1772975, “Novel potent and selective σ ligands: evaluation of their agonist and antagonist properties” (J Med Chem, 2011).

Structures are written as SMILES.

In the case of `CN(C(=O)Cc1ccc(Cl)c(Cl)c1)[C@H]1CCCC[C@@H]1N1CCCC1`, the Activity is 75.6%.
